The record followed here is patent US8552202B2, “Furo[3, 2-B] pyrrol-3-ones as cathespin S inhibitors” (Amura Therapeutics Limited, priority 2008, dated 2013).

Sequences of proteins named here, by UniProt entry; tags and fusion partners are left off. Residues count along the entry.
UniProt P25774, 115-331: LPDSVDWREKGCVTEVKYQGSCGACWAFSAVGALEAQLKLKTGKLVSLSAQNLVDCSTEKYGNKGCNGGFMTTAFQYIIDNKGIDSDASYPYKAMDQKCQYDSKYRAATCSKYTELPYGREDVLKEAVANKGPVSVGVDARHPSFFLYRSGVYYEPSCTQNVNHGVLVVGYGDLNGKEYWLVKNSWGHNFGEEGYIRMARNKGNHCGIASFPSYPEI

In this assay the target is Human recombinant cathepsin S (Homo sapiens (Human), UniProt P25774). In words: In vitro cathepsin Ki inhibition measurements, cathepsin S. Format: biochemical. The following applies: cathepsin S over cathepsin K. As for the experimental part:
Stock solutions of substrate or inhibitor were made up to 10 mM in 100% dimethylsulfoxide (DMSO) (Rathburns, Glasgow, U.K.) and diluted as appropriately required. In all cases the DMSO concentration in the assays was maintained at less than 1% (vol./vol.). The equilibrium inhibition constants (Ki^ss) for each compound were measured under steady-state conditions monitoring enzyme activity as a function of inhibitor concentration. The values were calculated on the assumption of pure competitive behaviour (Cornish-Bowden, A. Fundamentals of enzyme kinetics Portland Press; 1995, 93-128.). […]
The apparent inhibition constant (Ki) for each compound was determined on the basis that inhibition was reversible and occurred by a pure-competitive mechanism. The Ki values were calculated, from the dependence of enzyme activity as a function of inhibitor concentration, by direct regression analysis (Prism v 3.02) using Equation 2 (Cornish-Bowden, A., 1995.).
In situations where the apparent dissociation constant (Ki^app) approached the enzyme concentrations, the Ki^app values were calculated using a quadratic solution in the form described by Equation 3 (Morrison, J. F. Trends Biochem. Sci., 7, 102-105, 1982; Morrison, J. F. Biochim. Biophys. Acta. 185, 269-286, 1969: Stone, S. R. and Hofsteenge, J. Biochemistry, 25, 4622-4628, 1986). […]

For the molecule `O=C(N[C@H](C(=O)N1CC[C@H]2OCC(=O)[C@H]21)C1CCCCC1)c1ccccc1` [Compound 1], the “selectivity verses cathepsin K (in words)” value is “little selectivity”.
